## scFv variants of Ab-14 (heavy chain) against a SARS-CoV-2 spike peptide

From the AlphaSeq antibody data of Engelhart et al. 2022 (doi:10.1038/s41597-022-01779-4), copy in the FLAb collection.

Target: peptide PDVDLGDISGINAS, taken from heptad repeat 2 (HR2) of SARS-CoV-2 spike.

Each scFv is VH, the linker GGGGSGGGGSGGGGS, VL, as in the parent Ab-14, and differs from it in the CDRs of the heavy chain only.
VH: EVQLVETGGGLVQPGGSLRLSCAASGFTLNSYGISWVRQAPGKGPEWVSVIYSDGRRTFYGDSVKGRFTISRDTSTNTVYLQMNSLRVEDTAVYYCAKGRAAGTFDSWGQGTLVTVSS
VL: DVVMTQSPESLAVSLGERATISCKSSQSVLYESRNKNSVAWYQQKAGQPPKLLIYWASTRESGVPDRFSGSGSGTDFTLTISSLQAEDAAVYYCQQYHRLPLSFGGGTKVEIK

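The starting antibody came from a phage panning campaign against this peptide. Library AAYL49 holds single substitutions and randomly drawn double and triple substitutions in the CDRs. The assay is AlphaSeq: two haploid yeast populations carry antibody and antigen on their surface. Pairs that bind mate more often; barcode pairs of the diploids are counted by sequencing. Read counts were normalised to the haploid input and turned into Kd by a linear fit to BCL2-family pairs of known affinity, for each replicate. The assay was run in three technical replicates.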

Changes read parent residue, position, new residue, counted from the first residue of the VH shown.
Scale: log10 of Kd in nM, estimated from mating counts; low values are strong binders.
"ND" means that the variant was in the library but no mating with the target was seen in that replicate; the authors take this as a sign of poor binding, and no number exists.
In this assay the parent's reference entry averaged 0.65; its copy inside this library read 4.11 (one replicate of three).

changes | log10 Kd, replicates | signal with controls
V50K+S53E+D106E | ND / ND / ND | 1/9 (3.25)
G26H+R56A+F105W | 2.11 / 2.26 / 3.30 | 3/9 (5.02)
N30L+G61M+T104M | ND / ND / ND | 0/9
G61N+T104G+F105E | ND / ND / ND | 1/9 (3.11)
G26F+Y52A+F105I | ND / ND / 3.75 | 0/9
Y52L+S107N | ND / ND / ND | 1/9 (4.37)
V64S+K65C+D106W | ND / ND / ND | 1/9 (2.52)
Y32M+S63Y+F105G | ND / ND / ND | 0/9
V50D+R57I+T58M | ND / ND / ND | 0/9
N30A+A101I+S107D | 2.74 / ND / ND | 2/9 (2.65)
I34K+A101H | ND / ND / 3.45 | 2/9 (4.46)
S63A+T104L+S107F | 1.93 / 1.79 / 2.05 | 4/9 (4.02)
Y52M+K65A+F105A | ND / 4.16 / 5.01 | 3/9 (3.90)
F27Y+S53G+V64G | ND / ND / ND | 0/9
S53A+G55S+R56W | ND / ND / ND | 0/9
G26A+S31E | ND / ND / 5.28 | 3/9 (2.86)
L29P+R100K+A102T | ND / ND / ND | 0/9
T28L+I34G+S107N | ND / ND / ND | 0/9
L29K+Y32M+G55L | ND / ND / ND | 0/9
T58Y+D62S+S63T | ND / ND / ND | 0/9
F59Y+G61W+V64R | 4.69 / ND / ND | 0/9
K65I+G99F+T104V | ND / ND / ND | 0/9
V50P+S63R+F105Y | ND / ND / ND | 1/9 (3.11)
S53K+D62N+S63T | ND / ND / ND | 0/9
G103P+F105E | 2.42 / 2.46 / 2.61 | 5/9 (4.18)
Y52H+D54F+Y60G | 3.79 / 3.82 / ND | 2/9 (4.85)
L29G+S31A+T104V | ND / ND / ND | 1/9 (3.24)
Y32H+S35Y+V64C | ND / ND / ND | 0/9
S53F+R56P+Y60T | ND / ND / ND | 0/9
S31N+G55S+D106I | 3.79 / 4.98 / 5.81 | 4/9 (3.78)
G26A+V50I+S107C | 3.00 / 2.32 / ND | 0/9
S63A+V64F+D106Y | ND / ND / ND | 1/9 (2.83)
S31Y+Y32T+A101T | 1.49 / 1.59 / 1.73 | 0/9
L29C+D62N+T104S | ND / ND / ND | 0/9
F27H+T58S+G103K | ND / ND / 4.15 | 2/9 (4.55)
N30F+S35Q+F59P | ND / ND / ND | 0/9
L29W+Y32R+A102C | ND / ND / ND | 1/9 (2.72)
G99D+R100G+T104C | 2.95 / ND / ND | 0/9
D54P+R57I+S107G | ND / ND / ND | 0/9
R56F+D62W+T104W | 3.97 / 3.90 / ND | 2/9 (3.82)
F27R+V50D+S53E | 5.60 / ND / ND | 4/9 (5.54)
L29S+R57N+F105K | ND / ND / ND | 0/9
G55D+G61C+G103D | ND / ND / ND | 2/9 (3.45)
S31E+V50N+T58N | ND / ND / ND | 2/9 (4.26)
G26P+I34A+Y52C | ND / ND / ND | 1/9 (3.04)
I51G+R57Q+D62L | ND / ND / ND | 0/9
S35M+Y52W+D62Y | ND / ND / ND | 1/9 (4.46)
S35N+F59K+A101N | ND / ND / ND | 0/9
T28H+R57I+V64R | ND / ND / ND | 0/9
I51Q+T58I+Y60S | ND / ND / ND | 3/9 (4.10)

Extract of 7 entries:

changes,"log10 Kd, replicates",signal with controls
G26H+R56A+F105W,2.11 / 2.26 / 3.30,3/9 (5.02)
F27R+V50D+S53E,5.60 / ND / ND,4/9 (5.54)
L29W+Y32R+A102C,ND / ND / ND,1/9 (2.72)
S35N+F59K+A101N,ND / ND / ND,0/9
T58Y+D62S+S63T,ND / ND / ND,0/9
D54P+R57I+S107G,ND / ND / ND,0/9
G103P+F105E,2.42 / 2.46 / 2.61,5/9 (4.18)

As a blank, each scFv also met three strains without target: over library AAYL49, 15% of these pairings were detected, typically at 4.06 and seldom below 2.83. The control count says in how many pairings with the empty strains this scFv gave a signal, with their mean in brackets.